Experimental findings from paper PMC6454087 are described below.

This experiment addresses mouse rec1c sNASP variant protein (V281I, L282F) (mouse). The experiment can be described thus: BLI; Octet K2, 30 C; sNASP WT or variant immobilised on aminopropylsilane (APS) biosensors, histones in assay buffer at various concentrations (62.5 to 1,000 nM shown for H4), association 240 s; n = 4.

pKd: −log10 of the molar value.

The substance “mouse histone H3.1 (from UniProt P68433 1-136) (natural protein)” showed a negative-log Kd (pKd) of 8.07 and an on-rate constant (kon) of 8950 M⁻¹ s⁻¹.
